In PMC11336009, “DPP-4 inhibitors sitagliptin and PF-00734,200 mitigate dopaminergic neurodegeneration, neuroinflammation and behavioral impairment in the rat 6-OHDA model of Parkinson’s disease” (GeroScience, 2024):

System: DPP-4
Conditions: delayed treatment 30 mg/kg daily p.o. day 7 to 45; brain (striatum), day 45

N[C@@H](CC(=O)N1CCn2c(nnc2C(F)(F)F)C1)Cc1cc(F)c(F)cc1F [Sitagliptin]
Brain DPP-4 activity inhibition: > 20%
